According to patent US20230277570A1, “ENPP1 Inhibitors and Their Use for the Treatment of Cancer” (The Board of Trustees of the Leland Stanford Junior …, priority 2017, published 2023):

System: 4T1-luciferase tumor
Assay: 4T1 tumor model: tumor volume and survival with IR, cGAMP, anti-CTLA-4
Format: in vivo, Balb/c mice

COc1cc2ncnc(N3CCC(CCP(=O)(O)O)CC3)c2cc1OC [Compound 1, dimethyl (2-(1-(6,7-dimethoxyquinazolin-4-yl)piperidin-4-yl)ethyl)phosphonic acid]
cure rate (20 Gy IR, then compound 1 in addition to 10 μg cGAMP intratumorally): 10% | cure rate (IR pretreatment with 1 mM compound 1 intratumorally and 200 μg anti-CTLA-4 intraperitoneally): 10%
